Measurements published in US11141413B2, “Method of treating renal cell carcinoma using N-(4-(6,7-dimethoxyquinolin-4-yloxy)phenyl)-N′-(4-fluorophenyl)cyclopropane-1,1-dicarboxamide, (2S)-hydroxybutanedioate” (Exelixis, Inc., priority 2016, dated 2021).
Read-outs that look alike come from different tables or passages of the source.

Amino acid sequences for entries named in this document (tags omitted). Residues count along the entry.
UniProt Q06418, 41-890: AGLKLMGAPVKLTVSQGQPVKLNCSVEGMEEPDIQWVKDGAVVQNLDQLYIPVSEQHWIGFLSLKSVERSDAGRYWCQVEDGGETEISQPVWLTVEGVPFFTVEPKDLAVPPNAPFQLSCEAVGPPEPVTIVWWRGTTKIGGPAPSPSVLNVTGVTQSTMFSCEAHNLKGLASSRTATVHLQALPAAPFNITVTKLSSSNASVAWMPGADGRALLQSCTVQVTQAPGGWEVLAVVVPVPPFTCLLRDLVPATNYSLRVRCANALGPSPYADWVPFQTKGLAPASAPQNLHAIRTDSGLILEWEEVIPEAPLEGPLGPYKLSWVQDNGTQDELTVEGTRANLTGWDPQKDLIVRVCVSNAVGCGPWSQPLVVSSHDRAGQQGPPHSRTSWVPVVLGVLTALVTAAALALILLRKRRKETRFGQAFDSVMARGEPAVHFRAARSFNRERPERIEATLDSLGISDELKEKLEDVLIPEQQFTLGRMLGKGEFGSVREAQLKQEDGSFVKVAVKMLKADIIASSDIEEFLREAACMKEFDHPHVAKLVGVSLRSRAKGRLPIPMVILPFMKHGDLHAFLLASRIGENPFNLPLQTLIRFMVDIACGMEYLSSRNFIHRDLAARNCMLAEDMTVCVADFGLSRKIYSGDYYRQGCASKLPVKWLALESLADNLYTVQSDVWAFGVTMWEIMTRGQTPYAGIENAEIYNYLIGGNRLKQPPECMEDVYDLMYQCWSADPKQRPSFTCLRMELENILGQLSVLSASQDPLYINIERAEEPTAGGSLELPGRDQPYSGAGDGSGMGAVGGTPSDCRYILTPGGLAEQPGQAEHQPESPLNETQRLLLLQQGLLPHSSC

How the values were obtained:
[1] = system: pregnant rats and rabbits
TYRO3 = TYRO3 (Homo sapiens, UniProt Q06418)

`COc1cc2nccc(Oc3ccc(NC(=O)C4(C(=O)Nc5ccc(F)cc5)CC4)cc3)c2cc1OC` [cabozantinib] was tested, and the “Embryo-fetal toxicity on administration to pregnant animals during organogenesis” value ([1]; in vivo) was “embryolethality at exposures below those occurring clinically at the recommended dose”, the “Embryo-fetal toxicity on administration to pregnant animals during organogenesis” value ([1]; rats and rabbits) was “embryofetal lethality and structural anomalies at exposures that were below those occurring clinically at the recommended dose” and the “Inhibition of tyrosine kinase activity” value (TYRO3) was “inhibits”.
